{"sequences": {"note": "The chains behind the UniProt entries cited, without tags or fusion partners.", "UniProt P34969, whole entry": "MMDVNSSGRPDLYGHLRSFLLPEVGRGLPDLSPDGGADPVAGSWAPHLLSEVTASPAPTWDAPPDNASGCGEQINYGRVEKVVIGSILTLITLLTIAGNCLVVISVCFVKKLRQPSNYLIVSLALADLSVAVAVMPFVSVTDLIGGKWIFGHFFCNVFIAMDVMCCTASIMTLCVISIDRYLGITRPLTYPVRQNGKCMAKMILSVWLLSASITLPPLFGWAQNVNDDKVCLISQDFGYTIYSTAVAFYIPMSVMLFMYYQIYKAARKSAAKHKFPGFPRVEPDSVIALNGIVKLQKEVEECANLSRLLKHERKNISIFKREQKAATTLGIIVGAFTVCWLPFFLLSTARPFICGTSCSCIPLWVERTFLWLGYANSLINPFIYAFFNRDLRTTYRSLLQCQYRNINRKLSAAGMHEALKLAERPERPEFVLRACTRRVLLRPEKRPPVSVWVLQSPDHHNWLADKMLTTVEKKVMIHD"}, "source": "paper PMC9781916", "about": "“Antipsychotic- and Anxiolytic-like Properties of a Multimodal Compound JJGW08 in Rodents” (International Journal of Molecular Sciences, 2022)", "biological_target": "human serotonin 5-HT7 receptor (Homo sapiens, UniProt P34969)", "assay": "Functional assay (cAMP, TR-FRET) in CHO-K1 cells, 5-HT7 receptor"}
{"smiles": "CC1CCN(CC[C@H]2CCCN2S(=O)(=O)c2cccc(O)c2)CC1", "note": "[SB-269970, reference compound]", "values": [{"measurement": "Agonist Mode Emax%", "setting": "5-HT7, agonist mode", "value": 0, "unit": "%"}, {"measurement": "Antagonist Mode Emax%", "setting": "5-HT7, antagonist mode, 10 nM serotonin as reference agonist", "value": 9, "unit": "%"}]}
